{"source": "ChEMBL document CHEMBL1142933", "about": "“Rational design of novel, potent small molecule pan-selectin antagonists” (J Med Chem, 2007)", "molecular_target": "T1, E-selectin (Homo sapiens, UniProt P16581)", "T1 sequence (P16581 whole entry)": "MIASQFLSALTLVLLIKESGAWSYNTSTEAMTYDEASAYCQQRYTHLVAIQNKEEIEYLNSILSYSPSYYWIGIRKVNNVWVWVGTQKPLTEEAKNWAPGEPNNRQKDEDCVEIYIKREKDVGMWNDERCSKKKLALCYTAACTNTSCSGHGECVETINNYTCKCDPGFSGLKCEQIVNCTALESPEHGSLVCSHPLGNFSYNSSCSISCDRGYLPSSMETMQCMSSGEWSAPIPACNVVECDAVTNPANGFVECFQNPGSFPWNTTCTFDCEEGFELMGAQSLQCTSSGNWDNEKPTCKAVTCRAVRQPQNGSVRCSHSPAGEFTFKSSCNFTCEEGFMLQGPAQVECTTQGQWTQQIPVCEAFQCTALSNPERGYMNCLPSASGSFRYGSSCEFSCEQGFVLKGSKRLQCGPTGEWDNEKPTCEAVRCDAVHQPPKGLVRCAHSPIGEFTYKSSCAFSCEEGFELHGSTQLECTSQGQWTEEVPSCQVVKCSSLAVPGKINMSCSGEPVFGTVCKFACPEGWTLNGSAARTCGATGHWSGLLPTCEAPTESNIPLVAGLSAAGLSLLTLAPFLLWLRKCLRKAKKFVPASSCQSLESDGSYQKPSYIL", "test": "Inhibition of human E-selectin after 2 hrs", "procedure,_shortened": "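Competitive ELISA: anti-human Fc-coated wells loaded with human E-, P- or L-selectin/Fc chimera (0.61 nM), 2 h 37 °C. Biotinylated sLeX-tyrosine sulfate polyacrylamide complexed with streptavidin-peroxidase added with compound at varying concentrations (HEPES pH 7.4, 1 mM CaCl2, 1% DMSO), 2 h 37 °C. TMB read-out, OD 450 vs 620 nm. IC50 by four-parameter logistic fit; maximum 500 µM.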", "data": [{"smiles": "O=C(O)Cc1cccc(-c2cc(CCCCCCc3ccc(O[C@H]4O[C@H](CO)[C@@H](O)[C@H](O)[C@@H]4O)c(-c4cccc(CC(=O)O)c4)c3)ccc2O[C@H]2O[C@H](CO)[C@@H](O)[C@H](O)[C@@H]2O)c1", "note": "[BIMOSIAMOSE]", "values": [{"measurement": "IC50", "value": "> 500", "unit": "µM"}]}]}
